Target: T1, α1A-adrenoceptor (human (endogenous in hVSMCs), UniProt P35348 1-466)
T1 construct: α1A-adrenoceptor, endogenous in human vascular smooth muscle cells; also called α1A-AR; source: endogenous, hVSMCs (primary aortic smooth muscle cells, ATCC PCS-100-012), fixed cells
T1 sequence (looked up): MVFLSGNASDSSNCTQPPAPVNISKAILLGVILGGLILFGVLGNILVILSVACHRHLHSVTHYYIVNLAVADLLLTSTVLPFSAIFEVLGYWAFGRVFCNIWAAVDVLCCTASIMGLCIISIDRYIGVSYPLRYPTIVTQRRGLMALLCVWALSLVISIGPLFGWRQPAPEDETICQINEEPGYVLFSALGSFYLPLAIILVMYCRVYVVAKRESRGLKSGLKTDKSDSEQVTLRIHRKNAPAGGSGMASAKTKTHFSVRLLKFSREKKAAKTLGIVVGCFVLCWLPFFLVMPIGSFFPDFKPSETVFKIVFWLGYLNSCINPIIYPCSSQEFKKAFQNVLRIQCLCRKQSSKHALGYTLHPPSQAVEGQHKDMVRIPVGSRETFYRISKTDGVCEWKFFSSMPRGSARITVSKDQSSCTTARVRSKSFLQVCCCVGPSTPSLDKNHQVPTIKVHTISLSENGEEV
Experiment: proximity ligation; Duolink II PLA on hVSMCs fixed with 4% paraformaldehyde; two primary antibodies from differing species (1:500, 37°C, 105 min); control: omission of one primary antibody; PLA signals per cell counted; cells untreated or incubated 72 h with non-targeting, CXCR4, ACKR3 or AVPR1A siRNA
Conditions: partners not purified

B1: atypical chemokine receptor 3 (receptor, human (endogenous in hVSMCs), UniProt P25106 1-362, looked up)
chain: MDLHLFDYSEPGNFSDISWPCNSSDCIVVDTVMCPNMPNKSVLLYTLSFIYIFIFVIGMIANSVVVWVNIQAKTTGYDTHCYILNLAIADLWVVLTIPVWVVSLVQHNQWPMGELTCKVTHLIFSINLFGSIFFLTCMSVDRYLSITYFTNTPSSRKKMVRRVVCILVWLLAFCVSLPDTYYLKTVTSASNNETYCRSFYPEHSIKEWLIGMELVSVVLGFAVPFSIIAVFYFLLARAISASSDQEKHSSRKIIFSYVVVFLVCWLPYHVAVLLDIFSILHYIPFTCRLEHALFTALHVTQCLSLVHCCVNPVLYSFINRNYRYELMKAFIFKYSAKTGLTKLIDASRVSETEYSALEQSTK
notes: atypical chemokine receptor 3 (ACKR3), endogenous in human vascular smooth muscle cells; also called ACKR3; source: endogenous, hVSMCs (primary aortic smooth muscle cells, ATCC PCS-100-012), fixed cells
PLA signals after AVPR1A siRNA, % of NT siRNA: 91%

From paper PMC8224933, “Plasticity of seven-transmembrane-helix receptor heteromers in human vascular smooth muscle cells” (PLoS ONE, 2021)
